Amino acid sequences for entries named in this document (tags omitted).
UniProt P21802, whole entry, looked up: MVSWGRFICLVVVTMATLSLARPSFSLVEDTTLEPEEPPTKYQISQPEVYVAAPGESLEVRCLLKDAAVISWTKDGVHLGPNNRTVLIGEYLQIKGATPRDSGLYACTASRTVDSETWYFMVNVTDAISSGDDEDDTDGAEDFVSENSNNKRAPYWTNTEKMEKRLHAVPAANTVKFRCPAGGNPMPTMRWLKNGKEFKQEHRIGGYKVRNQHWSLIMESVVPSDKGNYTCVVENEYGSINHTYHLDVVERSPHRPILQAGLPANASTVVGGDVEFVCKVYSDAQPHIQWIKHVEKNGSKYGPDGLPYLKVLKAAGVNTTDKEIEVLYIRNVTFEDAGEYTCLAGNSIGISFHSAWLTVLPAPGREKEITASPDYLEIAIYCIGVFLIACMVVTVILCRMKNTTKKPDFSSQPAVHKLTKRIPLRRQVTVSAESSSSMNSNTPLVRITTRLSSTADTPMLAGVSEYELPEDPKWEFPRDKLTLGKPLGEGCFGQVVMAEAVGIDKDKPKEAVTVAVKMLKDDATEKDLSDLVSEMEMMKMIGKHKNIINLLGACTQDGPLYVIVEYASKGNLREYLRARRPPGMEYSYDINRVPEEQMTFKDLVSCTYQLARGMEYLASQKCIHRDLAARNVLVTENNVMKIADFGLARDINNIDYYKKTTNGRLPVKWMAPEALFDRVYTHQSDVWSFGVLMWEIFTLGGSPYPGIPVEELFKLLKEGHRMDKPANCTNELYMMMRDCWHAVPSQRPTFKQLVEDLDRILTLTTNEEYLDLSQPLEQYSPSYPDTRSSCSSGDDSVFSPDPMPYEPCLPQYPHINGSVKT
UniProt P22455, whole entry, looked up: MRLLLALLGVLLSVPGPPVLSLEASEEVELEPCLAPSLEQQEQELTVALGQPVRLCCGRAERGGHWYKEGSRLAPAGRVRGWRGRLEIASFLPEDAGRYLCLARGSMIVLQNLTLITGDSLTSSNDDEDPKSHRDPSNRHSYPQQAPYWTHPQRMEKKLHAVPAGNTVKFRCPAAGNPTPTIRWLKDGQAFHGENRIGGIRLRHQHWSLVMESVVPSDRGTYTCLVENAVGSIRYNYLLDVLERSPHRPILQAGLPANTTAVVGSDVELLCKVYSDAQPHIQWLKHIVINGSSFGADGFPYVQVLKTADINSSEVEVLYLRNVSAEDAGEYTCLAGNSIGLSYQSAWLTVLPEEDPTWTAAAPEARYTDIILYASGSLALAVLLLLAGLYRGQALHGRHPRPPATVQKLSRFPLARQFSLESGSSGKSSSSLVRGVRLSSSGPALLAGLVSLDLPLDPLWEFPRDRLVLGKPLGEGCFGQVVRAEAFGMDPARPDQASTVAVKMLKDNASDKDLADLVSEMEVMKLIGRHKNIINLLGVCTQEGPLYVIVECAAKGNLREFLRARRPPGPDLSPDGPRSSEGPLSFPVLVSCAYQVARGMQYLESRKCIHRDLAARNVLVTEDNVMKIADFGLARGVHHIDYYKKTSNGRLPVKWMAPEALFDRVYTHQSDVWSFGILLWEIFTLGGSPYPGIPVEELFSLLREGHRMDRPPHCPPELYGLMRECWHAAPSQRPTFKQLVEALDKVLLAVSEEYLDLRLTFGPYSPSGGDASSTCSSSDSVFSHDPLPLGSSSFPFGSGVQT

According to ChEMBL document CHEMBL5465560, “Selectivity Literature for EUbOPEN Chemogenomic Library” (2024):

Experiments:
[1] = target: Fibroblast growth factor receptor 2 (Homo sapiens) (UniProt P21802); assay: Selectivity interaction (KinomeScan (DiscoverX)) EUB0000699a FGFR2; details: at 10 µM
[2] = target: Fibroblast growth factor receptor 4 (Homo sapiens, UniProt P22455); assay: Selectivity interaction (KinomeScan (DiscoverX)) EUB0000699a FGFR4; details: at 10 µM

% of control [1]: 2.9%
% of control [2]: 17%
SMILES: CCN(CC)CCCCNc1ncc2cc(-c3cc(OC)cc(OC)c3)c(NC(=O)NC(C)(C)C)nc2n1
